Drawing on PubChem BioAssay AID485272 (The Scripps Research Institute Molecular Screening Center, 2010), this text covers inhibition for 63 molecules.

Protein sequences, listed by entry. Tags and fused reporters are not part of them.
UniProt Q9UM07, whole entry: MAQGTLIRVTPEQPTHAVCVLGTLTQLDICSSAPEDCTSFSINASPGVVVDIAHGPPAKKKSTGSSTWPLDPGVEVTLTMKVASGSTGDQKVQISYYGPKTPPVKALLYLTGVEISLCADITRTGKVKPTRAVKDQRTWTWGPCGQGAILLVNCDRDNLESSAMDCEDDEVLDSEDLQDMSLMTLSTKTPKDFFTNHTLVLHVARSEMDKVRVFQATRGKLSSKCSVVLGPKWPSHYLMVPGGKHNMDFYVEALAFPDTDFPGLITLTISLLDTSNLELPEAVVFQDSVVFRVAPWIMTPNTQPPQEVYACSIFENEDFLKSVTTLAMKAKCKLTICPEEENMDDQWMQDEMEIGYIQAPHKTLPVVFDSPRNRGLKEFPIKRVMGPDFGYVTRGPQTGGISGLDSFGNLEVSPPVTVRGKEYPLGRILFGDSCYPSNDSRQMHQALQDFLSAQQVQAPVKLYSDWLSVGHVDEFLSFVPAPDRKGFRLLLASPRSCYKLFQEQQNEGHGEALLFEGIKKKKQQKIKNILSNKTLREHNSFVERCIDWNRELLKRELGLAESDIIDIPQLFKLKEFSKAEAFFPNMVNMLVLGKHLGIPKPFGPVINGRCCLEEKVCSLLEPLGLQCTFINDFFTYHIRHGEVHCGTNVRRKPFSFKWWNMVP

The entries are a selection whose mix differs from that of the whole data set. Active and inactive are the calls of the source.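 Rule for the calls: active = percent inhibition above a cutoff equal to the mean of all tested compounds plus 3 SD (cut at about 15% in these data); inactive = the rest.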

The test addresses Protein-arginine deiminase type-4 (Homo sapiens) (UniProt Q9UM07). Put plainly: human PAD4 inhibitors, primary screen, biochemical, fluorescence polarization, 1536-well format (AID 485272).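 Note: 0% = PAD4 with RCA probe and DMSO and 100% = probe without PAD4.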 The following applies: recombinant PAD4, RCA probe fluorescence polarization; at 6.36 µM; hits give high values.
The inhibition is the relative decrease from the control value, in per cent. Regarding `CCOC(=O)N1CCC(Nc2ccc(C)cc2)CC1`, the inhibition was inactive: -0.03%.

On to `N/C(=N\O)c1c(N)no[n+]1[O-]`, for which the inhibition was inactive: -15.7%.

As for `O=C(OC1CN2CCC1CC2)C1c2ccccc2C=Cc2ccccc21` (stereo not drawn), the inhibition was inactive: 0.53%.

On to `CCc1cc(C(=O)NCC2(N3CCCCC3)CCCCC2)sc1C`, for which the inhibition was inactive: -2.62%.

For the molecule `COc1cc(C(=O)NCC2(N3CCOCC3)CCCCC2)cc(OC)c1C`, the inhibition is inactive: -3.36%.

For the molecule `O=C(NCC1(N2CCOCC2)CCCCC1)c1cc(Br)ccc1Cl`, the inhibition was inactive: -3.16%.

As for `COc1ccc(C(=O)NCC2(N3CCOCC3)CCCCC2)cc1OC`, the inhibition was inactive: -1.89%.

With `CN(C)C1(CNC(=O)c2cccc(C#N)c2)CCCCC1`, the inhibition is inactive: 3.37%.

On to `c1ccc(CN2CCC(Nc3ccccc3)CC2)cc1`, for which the inhibition was inactive: 0.93%.

Turning to `CCCN1CCC(Nc2cc(OC)cc(OC)c2)CC1`, the inhibition was inactive: -0.01%.

For `N#Cc1ccc(C(=O)NCC2(N3CCCCC3)CCCCC2)cc1`, the inhibition was inactive: -0.46%.

As to `CC(C)(C)OC(=O)N1CCC(N(C(=O)c2ccccc2)c2ccc(Cl)cc2)CC1`, the inhibition was inactive: -3.65%.

With `CCN1CCC(Nc2cccc(F)c2)CC1`, the inhibition is inactive: 0.74%.

As to `O=C(NCC1(N2CCCCC2)CCCCC1)c1ccco1`, the inhibition was inactive: -4.3%.

On to `CN(C)c1ccc(C(=O)NCC2(N3CCCCC3)CCCCC2)cc1`, for which the inhibition was inactive: -1.26%.

For the molecule `COc1cc(OC)cc(C(=O)NCC2(N3CCCCC3)CCCCC2)c1`, the inhibition is inactive: 1.28%.

On to `Cc1ccc(C(=O)NCC2(N3CCCCC3)CCCCC2)o1`, for which the inhibition was inactive: 4.21%.

In the case of `Fc1ccccc1NC1CCN(Cc2ccccc2)CC1`, the inhibition is inactive: -1.07%.

As to `COc1cccc(C(=O)N(c2cc(C)cc(C)c2)C2CCN(C(=O)OC(C)(C)C)CC2)c1`, the inhibition is inactive: -7.38%.

Take `COc1cc(OC)cc(C(=O)NCC2(N3CCOCC3)CCCCC2)c1`: the inhibition is inactive: -3.44%.

As to `CCC(CO)(C(=O)OC1CN2CCC1CC2)c1ccccc1` (stereo not drawn), the inhibition was inactive: -0.67%.

`CN1CCC(Nc2ccc(Cl)cc2)CC1`: the inhibition was inactive: 2.19%.

Turning to `CCCOc1ccc(C)cc1CN(CCCl)CCCl`, the inhibition is inactive: 3.88%.

For the molecule `CCOc1ncccc1C(=O)NCC1(N2CCOCC2)CCCCC1`, the inhibition was inactive: -2.06%.

For `CN1CCC(Nc2ccc(F)c(Cl)c2)CC1`, the inhibition is inactive: -2.08%.

For the molecule `CC(C)(C)OC(=O)N1CCC(Nc2ccccc2)CC1`, the inhibition is inactive: 0.03%.

`O=C(O)C1(Nc2ccccc2)CCN(Cc2ccccc2)CC1`: the inhibition is inactive: 3.49%.

Turning to `CCCOc1ccc(C(=O)NCC2(N(C)C)CCCCC2)cc1`, the inhibition was inactive: 1.46%.

With `O=C(NCC1(N2CCCCC2)CCCCC1)c1ccc(Cl)nc1`, the inhibition is inactive: -2.43%.

On to `Cc1cc(C)cc(N(C(=O)c2ccccc2)C2CCN(C(=O)OC(C)(C)C)CC2)c1`, for which the inhibition was inactive: -1.78%.

In the case of `O=C(NCC1(N2CCOCC2)CCCCC1)c1cc2ccccc2o1`, the inhibition is inactive: -5.81%.

As for `O=C(OC1CN2CCC1CC2)C1c2ccccc2Oc2ccccc21` (stereo not drawn), the inhibition was inactive: -4.87%.

As to `N#CC1(Nc2ccccc2)CCN(Cc2ccccc2)CC1`, the inhibition was inactive: -5.82%.

With `O=C(NCC1(N2CCCCC2)CCCCC1)c1ccc(Cl)s1`, the inhibition is inactive: 0.31%.

`COc1ccc(Cl)cc1C(=O)NCC1(N2CCOCC2)CCCCC1`: the inhibition is inactive: 0.35%.

Consider `CCOC(=O)N1CCC(Nc2ccc(OC)cc2)CC1`, for which the inhibition is inactive: -0.5%.

For `COc1ccc(C(=O)NCC2(N3CCCCC3)CCCCC2)cc1`, the inhibition was inactive: 3.87%.

Consider `CC(C)(C)OC(=O)N1CCC(N(C(=O)c2ccccc2)c2ccc(F)cc2)CC1`, for which the inhibition was inactive: 6.86%.

In the case of `COc1ccc(C(=O)NCC2(N3CCCCC3)CCCCC2)c(OC)c1OC`, the inhibition was inactive: 4.58%.

In the case of `O=C(NCC1(N2CCCCC2)CCCCC1)c1ccc(=O)[nH]c1`, the inhibition is inactive: 4.72%.

With `O=C(NCC1(N2CCCCC2)CCCCC1)c1cccs1`, the inhibition is inactive: -1.23%.

As to `CSc1ccccc1C(=O)NCC1(N2CCCCC2)CCCCC1`, the inhibition is inactive: -6.02%.

With `CCOC(=O)N1CCC(Nc2cccc(C)c2)CC1`, the inhibition was inactive: 4.95%.

`Cc1ccc(OCC(C)C)c(CN(CCCl)CCCl)c1`: the inhibition is inactive: 6.04%.

As for `CCOc1ccc(C)cc1CN(CCCl)CCCl`, the inhibition is inactive: -5.75%.

As to `O=C(NCC1(N2CCCCC2)CCCCC1)c1ccc(F)cc1`, the inhibition is inactive: 1.98%.

`COc1ccc(NC2CCN(CCc3ccccc3)CC2)c(OC)c1`: the inhibition was inactive: -5.76%.

Turning to `O=C(NCC1(N2CCCCC2)CCCCC1)c1cccc(C(F)(F)F)c1`, the inhibition was inactive: -1.26%.

Turning to `O=C(NCC1(N2CCOCC2)CCCCC1)c1cc(=O)[nH]c2ccccc12`, the inhibition is inactive: -4.33%.

For the molecule `COc1cc(C(=O)NCC2(N3CCCCC3)CCCCC2)ccc1OC(F)F`, the inhibition was inactive: -5.81%.

For the molecule `COc1ccc(NC2CCN(C(=O)OC(C)(C)C)CC2)cc1`, the inhibition was inactive: -4.28%.

For the molecule `CN1CCN(CCOC(=O)C(O)(c2ccccc2)c2ccccc2)CC1`, the inhibition was inactive: -0.99%.

Regarding `O=C(NCC1(N2CCCCC2)CCCCC1)c1ccc(OC(F)F)cc1`, the inhibition was inactive: -2.94%.

Turning to `CCN1CCC(Nc2ccc(Cl)cc2)CC1`, the inhibition was inactive: 0.64%.

Consider `N#CC1(Nc2ccccc2)CCN(CCc2ccccc2)CC1`, for which the inhibition is inactive: -2.37%.

As to `O=C(NCC1(N2CCCCC2)CCCCC1)c1cccc([N+](=O)[O-])c1`, the inhibition was inactive: -3.61%.

For `O=C(NCC1(N2CCCCC2)CCCCC1)c1cncc(Br)c1`, the inhibition is inactive: -4.84%.

`CN1CCC(Nc2cccc(F)c2)CC1`: the inhibition was inactive: -8.72%.

For the molecule `CC(C)c1ccc(NC2CCN(C(=O)OC(C)(C)C)CC2)cc1`, the inhibition was inactive: 1.43%.

As for `COc1ccc(CN(CCCl)CCCl)cc1Cl`, the inhibition was inactive: 2.78%.

With `CN(C)c1cccc(C(=O)NCC2(N3CCCCC3)CCCCC2)c1`, the inhibition is inactive: -5.72%.

On to `COc1cc(OC)c(C(=O)NCC2(N(C)C)CCCCC2)cc1OC`, for which the inhibition is inactive: 3.01%.

Regarding `O=C(NCC1(N2CCOCC2)CCCCC1)c1cc(F)c(F)cc1Cl`, the inhibition is inactive: 0.05%.
